Sequences of proteins named here, by UniProt entry; tags and fusion partners are left off.
UniProt P30542, whole entry: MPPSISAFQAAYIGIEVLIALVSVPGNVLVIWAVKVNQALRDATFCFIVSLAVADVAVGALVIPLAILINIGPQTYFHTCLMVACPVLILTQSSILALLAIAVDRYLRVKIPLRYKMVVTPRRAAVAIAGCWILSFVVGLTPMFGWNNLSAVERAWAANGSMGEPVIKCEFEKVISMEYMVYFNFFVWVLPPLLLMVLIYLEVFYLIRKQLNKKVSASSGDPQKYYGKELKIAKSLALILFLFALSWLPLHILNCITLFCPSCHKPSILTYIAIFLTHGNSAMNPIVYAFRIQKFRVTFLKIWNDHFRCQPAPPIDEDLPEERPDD
UniProt Q60613, whole entry: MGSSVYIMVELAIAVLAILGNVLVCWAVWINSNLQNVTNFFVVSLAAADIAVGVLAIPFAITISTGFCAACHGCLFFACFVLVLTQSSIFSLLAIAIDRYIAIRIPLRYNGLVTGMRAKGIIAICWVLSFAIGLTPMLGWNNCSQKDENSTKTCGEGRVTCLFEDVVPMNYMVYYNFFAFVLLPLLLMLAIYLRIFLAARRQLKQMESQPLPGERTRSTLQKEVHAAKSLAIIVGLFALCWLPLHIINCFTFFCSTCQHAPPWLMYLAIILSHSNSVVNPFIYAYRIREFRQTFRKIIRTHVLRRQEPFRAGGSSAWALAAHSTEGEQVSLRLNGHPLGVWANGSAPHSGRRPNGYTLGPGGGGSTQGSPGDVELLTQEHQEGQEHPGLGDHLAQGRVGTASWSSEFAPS
UniProt Q60612, whole entry: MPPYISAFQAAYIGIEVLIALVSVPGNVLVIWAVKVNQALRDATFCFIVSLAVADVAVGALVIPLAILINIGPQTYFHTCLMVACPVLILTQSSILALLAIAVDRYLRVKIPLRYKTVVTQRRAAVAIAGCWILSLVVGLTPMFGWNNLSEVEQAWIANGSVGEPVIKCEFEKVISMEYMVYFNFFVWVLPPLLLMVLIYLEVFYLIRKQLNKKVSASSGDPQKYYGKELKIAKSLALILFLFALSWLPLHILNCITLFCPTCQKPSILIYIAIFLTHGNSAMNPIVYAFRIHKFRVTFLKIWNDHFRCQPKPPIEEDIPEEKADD

In paper PMC5183552 (Neuropharmacology, 2016):

What was measured:
[1] = target: Human A1AR (Homo sapiens, UniProt P30542); details: read-out: Ki, human A1AR; ref Tosh et al, 2012b; cited from earlier work
[2] = target: mouse A2AAR (Mus musculus, UniProt Q60613); test: Radioligand binding, recombinant mouse A2AAR in HEK-293 membranes; details: read-out: % inhibition at 10 µM, mouse A2AAR
[3] = target: mouse A1AR (Mus musculus, UniProt Q60612); test: Radioligand binding, recombinant mouse A1AR in HEK-293 membranes
[4] = target: T1, mouse A3AR (Mus musculus, UniProt Q61618); test: Radioligand binding, recombinant mouse A3AR in HEK-293 membranes
T1 sequence (Q61618 1-319): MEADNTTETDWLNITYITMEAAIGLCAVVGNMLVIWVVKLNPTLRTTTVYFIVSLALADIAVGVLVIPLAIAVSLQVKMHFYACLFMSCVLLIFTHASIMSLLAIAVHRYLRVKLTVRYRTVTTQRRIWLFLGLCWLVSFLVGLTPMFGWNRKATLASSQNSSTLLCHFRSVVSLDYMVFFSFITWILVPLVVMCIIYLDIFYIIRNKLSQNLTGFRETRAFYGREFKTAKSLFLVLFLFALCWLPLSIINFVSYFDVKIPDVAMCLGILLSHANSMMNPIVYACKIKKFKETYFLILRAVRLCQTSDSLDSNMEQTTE

inhibition at 10 µM [2]: 34 ± 9% | Ki [3]: 3.2 ± 0.05 nM | Ki [4]: 1060 ± 251 nM
Structure (SMILES): O[C@@H]1[C@@H]2C[C@@H]2C(n2cnc3c(NC(C4CC4)C4CC4)nc(Cl)nc32)[C@@H]1O (stereo partly drawn) [MRS5474, (1R,2R,3S,5S)-4-(2-chloro-6-((dicyclopropylmethyl)amino)-9H-purin-9-yl)bicyclo[3.1.0]hexane-2,3-diol]
Ki [1]: 50 nM
